# Properties, as collected for the OPERA models

Data: OPERA 2.9 data sets, kmansouri/OPERA on GitHub.

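OPERA's authors assembled the values from existing databases and did not measure them anew. A listed value is a point estimate from one report or more. Method and conditions are not stated for these values. The measured form (salt, isomer or mixture) is not always the one drawn. Unmarked limits or estimates from the upstream databases cannot be ruled out.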

The melting point is given in degrees Celsius. Boiling points are in °C, nominally at 760 mmHg. logP is the log10 of the octanol-water partition coefficient; higher is more lipophilic. Water solubility is log10 of mol/L, nominally at 25 °C; higher is more soluble. Vapor pressure is log10 of mmHg; the set covers 15 to 30 °C, mostly 20 to 25 °C. Henry's law constant (air-water partitioning) is log10 of atm·m3/mol, nominally at 25 °C. The unbound fraction in human plasma runs from 0 (all bound) to 1 (all free). "n/a" marks a cell with nothing listed here.

compound	melting point (°C)	BP (°C)	logP (octanol/water)	log solubility (log10 mol/L)	vapor pressure (log10 mmHg)	log H (log10 atm·m3/mol)	fraction unbound
CCCCCCCCCCCCCCCCCC(=O)NCCC[N+](C)(C)CC(=O)OCCCCCCCCCCCCCC.[Cl-]	25.3	n/a	5	n/a	n/a	n/a	n/a
COC(=O)[C@@H]1CC2=CC(=O)CC[C@]2(C)[C@@]23O[C@@H]2C[C@@]2(C)[C@@H](CC[C@@]24CCC(=O)O4)[C@H]13	n/a	n/a	n/a	-4.662	n/a	n/a	0.54
CCCCCCCC1CCCC1=O (stereo not drawn)	n/a	n/a	3.8	-3.769	-1.745	n/a	n/a
CC(=O)NCCCS(=O)(=O)O	n/a	n/a	-1.1	-0.984	n/a	n/a	0.97
CCCCOC(=O)C1CCC(O)CC1 (stereo not drawn)	n/a	274.5	n/a	-1.806	-3.498	n/a	n/a
COc1cc(/N=N/c2cc(S(=O)(=O)[O-])c3cccc(S(=O)(=O)[O-])c3c2)c(C)cc1/N=N/c1c(S(=O)(=O)[O-])cc2cc(Nc3ccccc3)ccc2c1O.[Na+].[Na+].[Na+]	n/a	n/a	-5	n/a	-13.67	n/a	n/a
CC(=O)c1cc2ccccc2o1	n/a	n/a	1.94	-2.548	-2.815	n/a	n/a
C=CC(=O)OCc1ccccc1	n/a	n/a	n/a	-2.444	-1.076	n/a	n/a
Cc1cccc(C)c1OS(=O)(=O)c1ccc(O)cc1	150.7	n/a	3	-4.537	n/a	n/a	n/a
CCCCCCC(=O)OCC(COC(=O)CCCCCC)(COC(=O)CCCCCC)COC(=O)CCCCCC	-36	n/a	n/a	-7.068	n/a	n/a	n/a
C=CC(C)(O)CCC=C(C)CCC=C(C)C (stereo not drawn)	n/a	n/a	4.5	-4.092	-2.639	n/a	n/a
CCN(CC)c1ccc2cc(-c3nc4cc(Cl)ccc4o3)c(=O)oc2c1	203.2	n/a	4.9	-7.488	-9.462	n/a	n/a
O=C(OC[C@@H]1CO[C@](CBr)(c2ccc(Cl)cc2Cl)O1)c1ccccc1	116.8	n/a	n/a	-7.57	-8.78	n/a	n/a
C=CC(C)(C)O	n/a	n/a	0.66	n/a	1.357	n/a	n/a
CO/N=C(\C(=O)N[C@@H]1C(=O)N2C(C(=O)O)=CCS[C@H]12)c1csc(N)n1	n/a	n/a	n/a	-3.224	n/a	n/a	0.7183
CC1(C)CC(=O)CC(C)(C#N)C1 (stereo not drawn)	67.55	279.9	1.7	-1.534	-2.921	n/a	n/a
COC(=O)C1C(C)=CCCC1(C)C (stereo not drawn)	n/a	n/a	n/a	-2.909	-1.146	n/a	n/a
CCOC(=O)C(C)(C)n1nc2ccccc2n1	39.5	n/a	2.98	n/a	n/a	n/a	n/a
NC1CCCC1	n/a	n/a	0.83	n/a	1.287	n/a	n/a
CSCSC	n/a	n/a	2.31	-1.54	0.638	n/a	n/a
C[C@H](CCC(=O)O)[C@H]1CC[C@H]2[C@@H]3[C@H](O)C[C@@H]4C[C@H](O)CC[C@]4(C)[C@H]3CC(=O)[C@]12C	n/a	n/a	2.97	n/a	-7.728	n/a	n/a
CCCCCCCCC(=O)OCC(C)(C)COC(=O)CCCCCCCC	-9.6	n/a	n/a	-8.109	-5.244	n/a	n/a
Clc1ccc(Oc2c(Cl)c(Cl)cc(Cl)c2Cl)c(Cl)c1Cl	81	n/a	n/a	-9.09	n/a	n/a	n/a
COc1ccc2c(c1)C(CC#N)=CCC2	44.9	n/a	2.42	-3.624	-5.319	n/a	n/a
CS(=O)(=O)c1ccc(C(=O)O)c([N+](=O)[O-])c1	n/a	n/a	-0.52	-1.753	n/a	n/a	n/a
CCN(CC)c1ccc(N=Nc2ccc([N+](=O)[O-])cc2)cc1	n/a	n/a	n/a	-10.4	-10.1	n/a	n/a
OCc1ccc(-c2ccccc2)cc1	n/a	n/a	3.2	-2.45	n/a	n/a	n/a
CC1CN(C2CCCCCCCCCCC2)CC(C)O1 (stereo not drawn)	n/a	n/a	n/a	-3.45	n/a	-5.119	n/a
CC(C)(C)C(=O)OCn1cnc2c(cnn2COC(=O)C(C)(C)C)c1=O	n/a	n/a	2.5	-4.261	n/a	n/a	n/a
N#CCC(=O)c1ccccc1Cl	n/a	n/a	0.8	-2.175	n/a	n/a	n/a
CC(=O)Nc1ccc(Nc2ccc(O)c3c2C(=O)c2ccccc2C3=O)cc1	n/a	n/a	3.151	-6.249	n/a	n/a	n/a
CCN(CCC#N)c1ccc(N=Nc2ccc([N+](=O)[O-])cc2)cc1	n/a	n/a	4.38	-7.209	-6.255	n/a	n/a
O=C(O)C(F)(F)C(F)(F)C(F)(F)C(F)(F)C(F)(C(F)(F)F)C(F)(F)F	1.375	189	n/a	n/a	n/a	n/a	n/a
O=C1c2ccccc2C(=O)N1C[C@H]1CO1	n/a	n/a	n/a	-2.187	-5.108	n/a	n/a
CC(=O)OC[C@@H]1O[C@H](n2cc(C)c(=O)[nH]c2=O)C[C@H]1OC(C)=O	125	n/a	1	n/a	-9.799	n/a	n/a

The first 5 entries again:

{"smiles": "CCCCCCCCCCCCCCCCCC(=O)NCCC[N+](C)(C)CC(=O)OCCCCCCCCCCCCCC.[Cl-]", "melting point (°C)": "25.3", "logP (octanol/water)": "5"}
{"smiles": "COC(=O)[C@@H]1CC2=CC(=O)CC[C@]2(C)[C@@]23O[C@@H]2C[C@@]2(C)[C@@H](CC[C@@]24CCC(=O)O4)[C@H]13", "log solubility (log10 mol/L)": "-4.662", "fraction unbound": "0.54"}
{"smiles": "CCCCCCCC1CCCC1=O", "stereo": "stereo not drawn", "logP (octanol/water)": "3.8", "log solubility (log10 mol/L)": "-3.769", "vapor pressure (log10 mmHg)": "-1.745"}
{"smiles": "CC(=O)NCCCS(=O)(=O)O", "logP (octanol/water)": "-1.1", "log solubility (log10 mol/L)": "-0.984", "fraction unbound": "0.97"}
{"smiles": "CCCCOC(=O)C1CCC(O)CC1", "stereo": "stereo not drawn", "BP (°C)": "274.5", "log solubility (log10 mol/L)": "-1.806", "vapor pressure (log10 mmHg)": "-3.498"}